What is called IC50 is the concentration that inhibits the measured activity by half.

Sequences of proteins named here, by UniProt entry; tags and fusion partners are left off. A change or cut given only in a name is not applied to a line headed by its entry. A line that says so, or that is headed by a name, gives the form on record, which may keep a tag or linker. Residues count along the entry.
UniProt P00533, 25-1210 limits assumed: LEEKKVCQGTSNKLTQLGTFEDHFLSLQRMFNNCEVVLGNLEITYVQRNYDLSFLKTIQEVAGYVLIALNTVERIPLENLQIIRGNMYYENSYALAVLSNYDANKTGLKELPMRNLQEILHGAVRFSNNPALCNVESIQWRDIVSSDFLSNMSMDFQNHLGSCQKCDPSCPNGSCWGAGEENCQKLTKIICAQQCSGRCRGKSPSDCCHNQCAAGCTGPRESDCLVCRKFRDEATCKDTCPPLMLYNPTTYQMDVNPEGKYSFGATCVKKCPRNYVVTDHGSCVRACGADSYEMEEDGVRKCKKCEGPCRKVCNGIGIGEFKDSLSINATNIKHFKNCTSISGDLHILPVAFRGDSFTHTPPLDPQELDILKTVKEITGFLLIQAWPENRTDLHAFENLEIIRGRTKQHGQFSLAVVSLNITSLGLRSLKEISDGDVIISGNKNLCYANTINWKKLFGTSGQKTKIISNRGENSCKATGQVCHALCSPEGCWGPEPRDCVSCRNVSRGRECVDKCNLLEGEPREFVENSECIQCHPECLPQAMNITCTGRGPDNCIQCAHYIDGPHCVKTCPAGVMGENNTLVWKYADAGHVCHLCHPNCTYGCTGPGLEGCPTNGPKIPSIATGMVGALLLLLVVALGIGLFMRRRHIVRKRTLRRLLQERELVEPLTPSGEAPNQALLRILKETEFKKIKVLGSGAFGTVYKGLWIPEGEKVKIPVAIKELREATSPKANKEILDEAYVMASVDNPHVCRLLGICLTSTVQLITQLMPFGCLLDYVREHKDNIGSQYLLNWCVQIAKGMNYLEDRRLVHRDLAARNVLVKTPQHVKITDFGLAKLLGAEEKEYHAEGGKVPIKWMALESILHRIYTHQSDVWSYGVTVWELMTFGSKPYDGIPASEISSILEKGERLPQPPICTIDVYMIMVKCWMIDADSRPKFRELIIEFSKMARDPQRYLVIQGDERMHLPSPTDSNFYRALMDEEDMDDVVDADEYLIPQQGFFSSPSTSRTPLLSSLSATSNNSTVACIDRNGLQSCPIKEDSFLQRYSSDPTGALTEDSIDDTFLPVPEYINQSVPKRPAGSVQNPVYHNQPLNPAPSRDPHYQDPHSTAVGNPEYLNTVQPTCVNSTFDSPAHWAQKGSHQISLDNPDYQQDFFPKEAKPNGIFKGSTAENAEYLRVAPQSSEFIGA
UniProt P00533, 25-1210 C797S/L858R limits assumed: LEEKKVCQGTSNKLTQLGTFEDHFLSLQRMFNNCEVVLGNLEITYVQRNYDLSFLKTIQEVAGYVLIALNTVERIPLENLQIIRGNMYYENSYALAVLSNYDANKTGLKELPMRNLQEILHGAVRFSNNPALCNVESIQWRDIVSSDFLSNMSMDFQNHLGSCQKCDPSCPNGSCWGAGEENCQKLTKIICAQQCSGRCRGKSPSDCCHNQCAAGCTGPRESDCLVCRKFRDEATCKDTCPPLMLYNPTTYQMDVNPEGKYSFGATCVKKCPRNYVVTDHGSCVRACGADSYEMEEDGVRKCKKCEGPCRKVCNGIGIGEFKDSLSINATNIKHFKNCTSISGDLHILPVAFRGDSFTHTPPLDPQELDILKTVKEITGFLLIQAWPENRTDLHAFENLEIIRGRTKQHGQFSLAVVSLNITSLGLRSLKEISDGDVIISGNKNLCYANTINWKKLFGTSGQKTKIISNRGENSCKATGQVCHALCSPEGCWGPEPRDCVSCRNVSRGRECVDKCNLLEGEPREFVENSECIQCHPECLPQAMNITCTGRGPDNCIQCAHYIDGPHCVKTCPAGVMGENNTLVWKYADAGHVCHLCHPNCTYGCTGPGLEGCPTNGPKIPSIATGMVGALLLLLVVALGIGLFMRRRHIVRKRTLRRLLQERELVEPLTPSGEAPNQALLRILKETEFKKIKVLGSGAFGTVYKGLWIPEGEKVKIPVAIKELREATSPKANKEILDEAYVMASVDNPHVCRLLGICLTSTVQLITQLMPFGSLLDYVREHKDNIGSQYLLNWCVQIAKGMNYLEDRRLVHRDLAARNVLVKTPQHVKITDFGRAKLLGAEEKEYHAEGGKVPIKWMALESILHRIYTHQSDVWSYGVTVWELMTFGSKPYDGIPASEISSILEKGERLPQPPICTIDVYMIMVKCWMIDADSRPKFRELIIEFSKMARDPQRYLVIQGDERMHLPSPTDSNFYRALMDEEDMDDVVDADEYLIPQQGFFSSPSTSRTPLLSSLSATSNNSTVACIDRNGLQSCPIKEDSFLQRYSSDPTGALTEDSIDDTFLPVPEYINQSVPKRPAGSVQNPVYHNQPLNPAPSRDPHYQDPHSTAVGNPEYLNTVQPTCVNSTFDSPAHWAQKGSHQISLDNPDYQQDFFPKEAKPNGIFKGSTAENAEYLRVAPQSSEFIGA
UniProt P00533, 25-1210 T790M/C797S/L858R limits assumed: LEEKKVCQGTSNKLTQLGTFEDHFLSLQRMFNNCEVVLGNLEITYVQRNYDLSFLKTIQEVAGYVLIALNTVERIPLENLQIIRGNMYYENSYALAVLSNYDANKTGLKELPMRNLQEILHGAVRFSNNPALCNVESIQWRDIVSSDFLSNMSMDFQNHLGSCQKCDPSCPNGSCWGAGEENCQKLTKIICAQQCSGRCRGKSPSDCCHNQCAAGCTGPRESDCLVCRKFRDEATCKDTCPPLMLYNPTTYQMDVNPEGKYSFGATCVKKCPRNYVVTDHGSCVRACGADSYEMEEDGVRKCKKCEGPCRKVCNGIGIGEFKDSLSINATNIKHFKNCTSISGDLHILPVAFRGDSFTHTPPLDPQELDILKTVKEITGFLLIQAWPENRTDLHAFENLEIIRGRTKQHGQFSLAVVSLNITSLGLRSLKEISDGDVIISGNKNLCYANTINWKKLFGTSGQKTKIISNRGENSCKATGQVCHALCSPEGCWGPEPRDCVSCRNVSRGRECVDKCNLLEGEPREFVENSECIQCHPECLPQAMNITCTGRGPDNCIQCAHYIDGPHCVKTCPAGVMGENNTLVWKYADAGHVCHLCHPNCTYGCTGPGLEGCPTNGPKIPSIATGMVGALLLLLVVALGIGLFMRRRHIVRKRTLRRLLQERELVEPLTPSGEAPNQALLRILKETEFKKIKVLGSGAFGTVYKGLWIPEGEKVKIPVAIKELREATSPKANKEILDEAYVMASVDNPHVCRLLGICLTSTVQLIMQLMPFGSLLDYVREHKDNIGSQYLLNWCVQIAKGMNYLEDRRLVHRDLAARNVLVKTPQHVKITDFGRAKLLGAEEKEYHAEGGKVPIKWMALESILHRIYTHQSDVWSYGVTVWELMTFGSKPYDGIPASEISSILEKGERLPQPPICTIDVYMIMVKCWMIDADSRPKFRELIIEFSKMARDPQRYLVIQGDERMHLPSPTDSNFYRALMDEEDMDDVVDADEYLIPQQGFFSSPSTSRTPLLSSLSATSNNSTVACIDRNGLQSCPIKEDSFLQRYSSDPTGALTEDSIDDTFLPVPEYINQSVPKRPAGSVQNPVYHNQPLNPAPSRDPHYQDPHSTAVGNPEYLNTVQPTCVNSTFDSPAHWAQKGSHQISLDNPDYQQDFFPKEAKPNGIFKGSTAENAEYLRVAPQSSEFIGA
UniProt P00533, with tags, fused parts or gaps DEL746-750/C797S limits assumed: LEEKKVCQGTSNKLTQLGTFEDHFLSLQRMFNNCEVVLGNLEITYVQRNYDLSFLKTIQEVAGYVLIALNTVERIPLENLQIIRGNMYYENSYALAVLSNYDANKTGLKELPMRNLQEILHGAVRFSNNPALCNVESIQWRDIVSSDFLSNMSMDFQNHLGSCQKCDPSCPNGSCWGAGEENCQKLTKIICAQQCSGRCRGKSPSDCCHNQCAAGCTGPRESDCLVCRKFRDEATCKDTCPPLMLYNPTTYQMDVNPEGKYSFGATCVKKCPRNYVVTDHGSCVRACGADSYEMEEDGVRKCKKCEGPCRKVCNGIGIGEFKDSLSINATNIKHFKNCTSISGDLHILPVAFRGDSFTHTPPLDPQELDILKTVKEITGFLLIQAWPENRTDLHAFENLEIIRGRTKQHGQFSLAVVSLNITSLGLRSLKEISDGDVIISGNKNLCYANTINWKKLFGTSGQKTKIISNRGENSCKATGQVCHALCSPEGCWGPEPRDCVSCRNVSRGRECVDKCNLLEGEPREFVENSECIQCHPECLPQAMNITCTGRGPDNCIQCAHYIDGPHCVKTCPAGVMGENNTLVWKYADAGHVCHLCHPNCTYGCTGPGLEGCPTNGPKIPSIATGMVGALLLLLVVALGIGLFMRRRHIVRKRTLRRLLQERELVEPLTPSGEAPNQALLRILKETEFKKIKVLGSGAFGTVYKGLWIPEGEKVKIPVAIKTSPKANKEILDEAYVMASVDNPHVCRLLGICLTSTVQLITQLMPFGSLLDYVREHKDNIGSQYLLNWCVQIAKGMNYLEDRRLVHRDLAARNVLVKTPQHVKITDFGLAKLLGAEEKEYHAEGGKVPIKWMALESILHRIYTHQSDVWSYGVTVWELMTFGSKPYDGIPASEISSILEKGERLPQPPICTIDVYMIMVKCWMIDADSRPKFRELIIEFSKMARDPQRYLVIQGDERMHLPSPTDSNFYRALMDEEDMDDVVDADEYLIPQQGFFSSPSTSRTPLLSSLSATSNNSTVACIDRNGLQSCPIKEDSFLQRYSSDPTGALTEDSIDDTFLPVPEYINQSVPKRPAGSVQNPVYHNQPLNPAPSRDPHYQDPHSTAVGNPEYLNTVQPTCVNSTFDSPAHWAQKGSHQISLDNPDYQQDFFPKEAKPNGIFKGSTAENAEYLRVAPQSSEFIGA
UniProt P00533, with tags, fused parts or gaps DEL746-750/T790M/C797S limits assumed: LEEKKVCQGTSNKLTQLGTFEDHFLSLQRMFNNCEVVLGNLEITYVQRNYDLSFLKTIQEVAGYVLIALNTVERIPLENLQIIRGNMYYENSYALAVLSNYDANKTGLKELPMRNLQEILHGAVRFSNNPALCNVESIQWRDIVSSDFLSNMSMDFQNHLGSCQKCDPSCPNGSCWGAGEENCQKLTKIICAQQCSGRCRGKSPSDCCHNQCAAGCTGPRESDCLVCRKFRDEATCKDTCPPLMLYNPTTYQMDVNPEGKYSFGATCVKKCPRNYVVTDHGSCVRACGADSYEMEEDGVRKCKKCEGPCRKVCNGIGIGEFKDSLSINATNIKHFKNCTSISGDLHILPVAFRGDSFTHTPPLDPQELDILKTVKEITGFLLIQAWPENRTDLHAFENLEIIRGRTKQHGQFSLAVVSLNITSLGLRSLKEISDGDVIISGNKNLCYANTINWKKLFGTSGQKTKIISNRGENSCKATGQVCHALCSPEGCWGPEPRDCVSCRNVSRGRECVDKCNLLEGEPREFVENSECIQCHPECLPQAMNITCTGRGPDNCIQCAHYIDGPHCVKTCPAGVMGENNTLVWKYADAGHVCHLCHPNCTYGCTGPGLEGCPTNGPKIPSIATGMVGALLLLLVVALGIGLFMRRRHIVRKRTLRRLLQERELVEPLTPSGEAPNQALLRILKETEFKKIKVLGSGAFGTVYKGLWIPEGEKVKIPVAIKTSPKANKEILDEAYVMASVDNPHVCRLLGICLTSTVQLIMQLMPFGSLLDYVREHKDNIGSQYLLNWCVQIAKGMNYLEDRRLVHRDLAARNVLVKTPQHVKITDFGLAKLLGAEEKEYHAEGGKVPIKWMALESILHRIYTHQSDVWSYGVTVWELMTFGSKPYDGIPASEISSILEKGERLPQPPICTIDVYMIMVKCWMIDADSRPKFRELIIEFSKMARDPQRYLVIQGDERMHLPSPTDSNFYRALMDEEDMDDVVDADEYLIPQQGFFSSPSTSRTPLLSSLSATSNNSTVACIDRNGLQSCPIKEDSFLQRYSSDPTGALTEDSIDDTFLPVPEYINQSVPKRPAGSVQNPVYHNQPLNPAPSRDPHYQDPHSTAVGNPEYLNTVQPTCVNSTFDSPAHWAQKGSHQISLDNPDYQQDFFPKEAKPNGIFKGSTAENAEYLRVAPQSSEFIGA

Assay [1] has as its target EGFR D19TMCS (del19/T790M/C797S) (Homo sapiens, UniProt P00533, C797S/DEL746-750/T790M). Kind of assay: Biochemical EGFR kinase assay (Lance Ultra TR-FRET), triple mutant del19/T790M/C797S. In general terms: Time-resolved FRET reads energy transfer from a long-lived donor to a nearby acceptor.
The target in assay [2] is EGFR LRTMCS (L858R/T790M/C797S) (Homo sapiens, UniProt P00533, C797S/L858R/T790M). Kind of assay: Biochemical EGFR kinase assay (Lance Ultra TR-FRET), triple mutant L858R/T790M/C797S.
In another assay the target is EGFR D19CS (del19/C797S) (Homo sapiens, UniProt P00533, C797S/DEL746-750). Kind of assay: Biochemical EGFR kinase assay (Lance Ultra TR-FRET), double mutant del19/C797S.
The target of another assay is EGFR LRCS (L858R/C797S) (Homo sapiens, UniProt P00533, C797S/L858R). Nature of the assay: Biochemical EGFR kinase assay (Lance Ultra TR-FRET), double mutant L858R/C797S.
Another assay addresses EGFR WT (Homo sapiens, UniProt P00533). Nature of the assay: Biochemical EGFR kinase assay (Lance Ultra TR-FRET), wildtype.
The mark [3] stands for this setting: read-out: IC50, EGFR D19TMCS, Km, ATP at Km, EGFR del19/T790M/C797S.
Where [4] appears, read: read-out: IC50, EGFR LRTMCS, 1 mM, ATP 1 mM, EGFR L858R/T790M/C797S.
Setting [5] is: read-out: IC50, EGFR LRTMCS, Km, ATP at Km, EGFR L858R/T790M/C797S.
The mark [6] stands for this setting: read-out: IC50, EGFR-D19CS, 1 mM, ATP 1 mM, EGFR del19/C797S.
[7] abbreviates: read-out: IC50, EGFR-D19CS, Km, ATP at Km, EGFR del19/C797S.
Where [8] appears, read: read-out: IC50, EGFR-LRCS, 1 mM, ATP 1 mM, EGFR L858R/C797S.
[9] abbreviates: read-out: IC50, EGFR-LRCS, Km, ATP at Km, EGFR L858R/C797S.
Where [10] appears, read: read-out: IC50, EGFR WT, 1 mM, ATP 1 mM, EGFR wildtype.
[11] abbreviates: read-out: IC50, EGFR WT, Km, ATP at Km, EGFR wildtype.
Where [12] appears, read: read-out: EGFR D19TMCS IC50, ATP 1 mM.
Setting [13] is: read-out: EGFR D19TMCS IC50, ATP Km.
Setting [14] is: read-out: EGFR LRTMCS IC50, ATP 1 mM.
[15] abbreviates: read-out: EGFR LRTMCS IC50, ATP Km.
The mark [16] stands for this setting: read-out: EGFR D19CS IC50, ATP 1 mM.
Where [17] appears, read: read-out: EGFR D19CS IC50, ATP Km.
[18] abbreviates: read-out: EGFR LRCS IC50, ATP 1 mM.
[19] abbreviates: read-out: EGFR LRCS IC50, ATP Km.
Where [20] appears, read: read-out: EGFR WT IC50, ATP 1 mM.

Where two headings read alike, the source gives them in different places.

As for `Cc1nn(C)c2c1-c1nccc(n1)Nc1cc(c(-c3ccc(OC(F)F)cn3)cn1)NCC[C@H](C)O2`, the IC50 was < 10 nM in assay [1] (setting [3]); 10 to 100 nM in assay [2] (setting [4]); < 10 nM in assay [2] (setting [5]); 10 to 100 nM at EGFR D19CS (del19/C797S) (setting [6]); < 10 nM at EGFR D19CS (del19/C797S) (setting [7]); 100 to 1000 nM at EGFR LRCS (L858R/C797S) (setting [8]). Moreover, the IC50 on EGFR LRCS (L858R/C797S) (setting [9]) was < 10 nM; at EGFR WT (setting [10]) it was > 1000 nM; at EGFR WT (setting [11]), 10 to 100 nM.

`Cc1nn(C)c2c1-c1nccc(n1)Nc1cc(c(-c3ncc(CN4CCC(C)(O)CC4)cc3F)cn1)N[C@@H](C)CCO2`: the IC50 was < 10 nM in assay [1] (setting [3]); < 10 nM in assay [2] (setting [4]); < 10 nM in assay [2] (setting [5]); 10 to 100 nM at EGFR D19CS (del19/C797S) (setting [6]); < 10 nM at EGFR D19CS (del19/C797S) (setting [7]); 10 to 100 nM on EGFR LRCS (L858R/C797S) (setting [8]). For the same compound, the IC50 is < 10 nM at EGFR LRCS (L858R/C797S) (setting [9]), > 1000 nM on EGFR WT (setting [10]) and 10 to 100 nM at EGFR WT (setting [11]).

Regarding `C[C@H]1CCOc2c(cnn2C)-c2nccc(n2)Nc2cc(c(-c3ncc(CN4CC5(COC5)C4)cc3F)cn2)N1`, the IC50 (in assay [1] (setting [12]); in assay [1] (setting [13]); in assay [2] (setting [14]); in assay [2] (setting [15]); on EGFR D19CS (del19/C797S) (setting [16]); on EGFR D19CS (del19/C797S) (setting [17])) was < 10 nM each time. In addition, the IC50 on EGFR LRCS (L858R/C797S) (setting [18]) is 10 to 100 nM; at EGFR LRCS (L858R/C797S) (setting [19]) it was < 10 nM; on EGFR WT (setting [20]), > 1000 nM; at EGFR WT (read-out: EGFR WT IC50, ATP Km), < 10 nM.

In the case of `C[C@H]1CCOc2c(cnn2C)-c2nccc(n2)Nc2cc(c(-c3ncc(CN4CCCCC4)cc3F)cn2)N1`, the IC50 (in assay [1] (setting [12]); in assay [1] (setting [13]); in assay [2] (setting [14]); in assay [2] (setting [15]); on EGFR D19CS (del19/C797S) (setting [16]); on EGFR D19CS (del19/C797S) (setting [17])) was < 10 nM throughout. The IC50 at EGFR LRCS (L858R/C797S) (setting [18]) was 10 to 100 nM; on EGFR LRCS (L858R/C797S) (setting [19]), < 10 nM; on EGFR WT (setting [20]), > 1000 nM; on EGFR WT (read-out: EGFR WT IC50, ATP Km) it was < 10 nM.

With `Cc1nn(C)c2c1-c1nccc(n1)Nc1cc(c(-c3ncc(CN4CCC(O)CC4)cc3F)cn1)N[C@@H](C)CCO2`, the IC50 in assay [1] (setting [3]) was < 10 nM; in assay [2] (setting [4]), < 10 nM; in assay [2] (setting [5]), < 10 nM; at EGFR D19CS (del19/C797S) (setting [6]) it was 10 to 100 nM; at EGFR D19CS (del19/C797S) (setting [7]), < 10 nM; on EGFR LRCS (L858R/C797S) (setting [8]) it was 10 to 100 nM. The IC50 was < 10 nM on EGFR LRCS (L858R/C797S) (setting [9]), > 1000 nM at EGFR WT (setting [10]) and 10 to 100 nM on EGFR WT (setting [11]).

On to `C[C@H]1CCNc2cc(ncc2-c2ccc(C(C)(O)C(F)(F)F)cn2)Nc2ccnc(n2)-c2cnn(C)c2O1` (stereo partly drawn), for which the IC50 is < 10 nM in assay [1] (setting [12]); < 10 nM in assay [1] (setting [13]); < 10 nM in assay [2] (setting [14]); < 10 nM in assay [2] (setting [15]); 10 to 100 nM on EGFR D19CS (del19/C797S) (setting [16]); < 10 nM at EGFR D19CS (del19/C797S) (setting [17]). Further, the IC50 at EGFR LRCS (L858R/C797S) (setting [18]) was 10 to 100 nM; on EGFR LRCS (L858R/C797S) (setting [19]) it was < 10 nM; on EGFR WT (setting [20]) it was > 1000 nM; on EGFR WT (read-out: EGFR WT IC50, ATP Km), 10 to 100 nM.

As for `Cc1nn(C)c2c1-c1nccc(n1)Nc1cc(c(-c3ncc(C(C)(C)O)cc3F)cn1)NCC[C@H](C)O2`, the half-inhibitory concentration (IC50) is < 10 nM in assay [1] (setting [12]); < 10 nM in assay [1] (setting [13]); < 10 nM in assay [2] (setting [14]); < 10 nM in assay [2] (setting [15]); 10 to 100 nM at EGFR D19CS (del19/C797S) (setting [16]); < 10 nM at EGFR D19CS (del19/C797S) (setting [17]). For the same compound, the IC50 at EGFR LRCS (L858R/C797S) (setting [18]) is 10 to 100 nM; at EGFR LRCS (L858R/C797S) (setting [19]), < 10 nM; on EGFR WT (setting [20]) it was > 1000 nM; on EGFR WT (read-out: EGFR WT IC50, ATP Km) it was 10 to 100 nM.

For the compound `Cc1nn(C)c2c1-c1nccc(n1)Nc1cc(c(-c3ccc(C(F)(F)F)cn3)cn1)NCC[C@H](C)O2`, the half-inhibitory concentration (IC50) in assay [1] (setting [12]) is < 10 nM; in assay [1] (setting [13]) it was < 10 nM; in assay [2] (setting [14]), 10 to 100 nM; in assay [2] (setting [15]) it was < 10 nM; on EGFR D19CS (del19/C797S) (setting [16]) it was 100 to 1000 nM; at EGFR D19CS (del19/C797S) (setting [17]), 10 to 100 nM. Besides, the IC50 was 100 to 1000 nM at EGFR LRCS (L858R/C797S) (setting [18]); 10 to 100 nM at EGFR LRCS (L858R/C797S) (setting [19]); > 1000 nM at EGFR WT (setting [20]); > 1000 nM on EGFR WT (read-out: EGFR WT IC50, ATP Km).

As to `COc1cccnc1-c1cnc2cc1NCCCOc1c(cnn1C)-c1nccc(n1)N2`, the IC50 is > 1000 nM in assay [1] (setting [12]); 10 to 100 nM in assay [1] (setting [13]); 100 to 1000 nM in assay [2] (setting [14]); < 10 nM in assay [2] (setting [15]); > 1000 nM at EGFR D19CS (del19/C797S) (setting [16]); > 1000 nM on EGFR D19CS (del19/C797S) (setting [17]). Besides, the IC50 on EGFR LRCS (L858R/C797S) (setting [18]) was > 1000 nM; on EGFR LRCS (L858R/C797S) (setting [19]) it was > 1000 nM; on EGFR WT (setting [20]), > 1000 nM; on EGFR WT (read-out: EGFR WT IC50, ATP Km), > 1000 nM.

The values are drawn from patent US20260384450A1, “MACROCYCLIC AMINOPYRIDINE COMPOUNDS AS EGFR INHIBITORS” (published 2026).
